Test results taken from BindingDB's records for patent US9242969 (Novartis AG, 2016).

Chains of the proteins cited; added tags and fusions are not shown. Residues count along the entry.
UniProt P15056, 2-766 V600E limits assumed: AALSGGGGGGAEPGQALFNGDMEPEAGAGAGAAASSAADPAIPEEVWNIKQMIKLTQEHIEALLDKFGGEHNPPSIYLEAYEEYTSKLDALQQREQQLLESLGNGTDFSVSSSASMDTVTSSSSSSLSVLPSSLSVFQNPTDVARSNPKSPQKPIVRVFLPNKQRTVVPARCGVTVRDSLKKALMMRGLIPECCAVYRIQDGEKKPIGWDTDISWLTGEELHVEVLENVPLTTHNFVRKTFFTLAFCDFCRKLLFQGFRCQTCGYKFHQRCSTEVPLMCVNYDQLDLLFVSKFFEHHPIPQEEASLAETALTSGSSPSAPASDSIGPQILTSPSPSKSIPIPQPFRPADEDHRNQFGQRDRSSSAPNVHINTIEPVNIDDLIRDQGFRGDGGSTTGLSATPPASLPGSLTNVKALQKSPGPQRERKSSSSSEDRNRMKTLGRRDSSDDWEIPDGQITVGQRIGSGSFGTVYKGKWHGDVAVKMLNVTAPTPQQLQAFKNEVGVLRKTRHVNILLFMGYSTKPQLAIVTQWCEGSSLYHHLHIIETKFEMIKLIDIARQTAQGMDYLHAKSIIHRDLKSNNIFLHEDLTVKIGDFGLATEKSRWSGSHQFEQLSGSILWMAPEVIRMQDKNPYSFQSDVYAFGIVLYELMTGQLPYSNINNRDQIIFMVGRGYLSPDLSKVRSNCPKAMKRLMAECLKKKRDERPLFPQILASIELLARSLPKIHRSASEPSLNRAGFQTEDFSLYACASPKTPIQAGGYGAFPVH

Biological target: Serine/threonine-protein kinase B-raf [V600E] (Homo sapiens, UniProt P15056, V600E)

Structure (SMILES)	pIC50
Cc1ccc(NC(=O)c2cccc(C3(C#N)CC3)c2Cl)cc1-c1cc(N2CCOCC2)nc(N2CCOCC2)n1 [US9242969, 17]	8.52
Cc1ccc(NC(=O)c2cccc(C(F)(F)F)c2)cc1-c1cc(N)nc(N2CCOCC2)c1 [US9242969, 93]	9.10

pIC50: −log10 of the molar value.
